Measurements from publication PMC4829233, “Identification of Novel Chemical Scaffolds Inhibiting Trypanothione Synthetase from Pathogenic Trypanosomatids” (PLoS Neglected Tropical Diseases, 2016).
Values joined by “and” are separate entries in the source; they are usually repeats but may differ in a detail not shown here. Equal values may be shown once.

Test system: N[C@@H](CCC(=O)N[C@@H](CS)C(=O)NCC(=O)O)C(=O)O
Assay: purified protein, by the assay type
Settings: other: LDH/PK assay, saturating co-substrates; pH 7.4

## T. cruzi trypanothione synthetase (TcTryS) (Trypanosoma cruzi strain CL Brener)
  Km: 123 ± 23 µM and 140 ± 13 µM
